Reference: the NIST ThermoML archive (doi:10.1016/j.jct.2013.08.030)
± gives the expanded uncertainty stated by the source.

Test: activity coefficient (dimensionless); of the first substance listed, at infinite dilution; xn = mol fraction of the nth substance listed
Conditions: 101 kPa, Liquid, Chromatography, x1 = 0

CCCCOCCCC [dibutyl ether] + CCCC[N+]1(C)CCOCC1.N#C[C-](C#N)C#N
Conditions	activity coefficient
318.15 K	39.7 ± 2.7
328.15 K	37.3 ± 2.6
338.15 K	35.1 ± 2.4
348.15 K	33.3 ± 2.3
358.15 K	31.5 ± 2.2
368.15 K	29.7 ± 2
